Assay results published in ChEMBL document CHEMBL5500338, “Design, synthesis, and biological evaluation of piperazine derivatives as pan-PPARs agonists for the treatment of liver fibrosis” (Eur J Med Chem, 2024).
Calls of active or inactive are those of the source. No cut-off for these calls is given here.

Sequences of proteins named here, by UniProt entry; tags and fusion partners are left off.
UniProt P13631, whole entry: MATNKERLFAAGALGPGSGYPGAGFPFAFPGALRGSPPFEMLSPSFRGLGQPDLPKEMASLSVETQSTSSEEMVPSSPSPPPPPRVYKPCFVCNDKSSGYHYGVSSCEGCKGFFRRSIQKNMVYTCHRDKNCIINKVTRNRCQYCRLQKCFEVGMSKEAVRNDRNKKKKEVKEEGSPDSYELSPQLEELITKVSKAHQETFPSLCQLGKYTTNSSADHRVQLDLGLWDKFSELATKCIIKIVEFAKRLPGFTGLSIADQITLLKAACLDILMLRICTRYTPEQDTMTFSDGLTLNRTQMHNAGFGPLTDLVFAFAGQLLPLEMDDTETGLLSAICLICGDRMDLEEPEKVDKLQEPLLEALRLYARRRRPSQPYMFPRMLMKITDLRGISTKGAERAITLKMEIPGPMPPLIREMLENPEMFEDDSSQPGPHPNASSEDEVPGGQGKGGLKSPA
UniProt P10826, whole entry: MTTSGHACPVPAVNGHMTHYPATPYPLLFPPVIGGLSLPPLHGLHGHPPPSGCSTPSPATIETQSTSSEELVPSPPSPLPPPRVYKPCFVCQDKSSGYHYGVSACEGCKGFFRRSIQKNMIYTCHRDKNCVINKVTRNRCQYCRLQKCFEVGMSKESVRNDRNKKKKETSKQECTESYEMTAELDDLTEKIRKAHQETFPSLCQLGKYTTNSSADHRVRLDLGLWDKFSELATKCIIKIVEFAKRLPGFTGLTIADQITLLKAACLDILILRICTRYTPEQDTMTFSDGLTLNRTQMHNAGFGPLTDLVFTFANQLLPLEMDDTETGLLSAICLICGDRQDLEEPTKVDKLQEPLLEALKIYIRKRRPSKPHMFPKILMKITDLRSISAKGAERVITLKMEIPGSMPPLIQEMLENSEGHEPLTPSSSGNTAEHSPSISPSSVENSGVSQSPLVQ

What was measured:
Type in all cases: cell-based
Details in all cases: dose 1-10 µM
[1] = biological target: Retinoic acid receptor gamma (Homo sapiens) (UniProt P13631); experiment: Agonist activity at RARgamma (unknown origin) transfected in African green monkey COS-7 cells co-transfected with LBD-GAL4 assessed as receptor transactivation at 1 to 10 uM incubated for 16 hrs by luciferase reporter gene assay
[2] = biological target: Retinoic acid receptor beta (Homo sapiens) (UniProt P10826); experiment: Agonist activity at RARbeta (unknown origin) transfected in African green monkey COS-7 cells co-transfected with LBD-GAL4 assessed as receptor transactivation at 1 to 10 uM incubated for 16 hrs by luciferase reporter gene assay
[3] = biological target: T1, Vitamin D3 receptor (Homo sapiens) (UniProt P11473); experiment: Agonist activity at VDR (unknown origin) transfected in African green monkey COS-7 cells co-transfected with LBD-GAL4 assessed as receptor transactivation at 1 to 10 uM incubated for 16 hrs by luciferase reporter gene assay
T1 sequence (whole entry): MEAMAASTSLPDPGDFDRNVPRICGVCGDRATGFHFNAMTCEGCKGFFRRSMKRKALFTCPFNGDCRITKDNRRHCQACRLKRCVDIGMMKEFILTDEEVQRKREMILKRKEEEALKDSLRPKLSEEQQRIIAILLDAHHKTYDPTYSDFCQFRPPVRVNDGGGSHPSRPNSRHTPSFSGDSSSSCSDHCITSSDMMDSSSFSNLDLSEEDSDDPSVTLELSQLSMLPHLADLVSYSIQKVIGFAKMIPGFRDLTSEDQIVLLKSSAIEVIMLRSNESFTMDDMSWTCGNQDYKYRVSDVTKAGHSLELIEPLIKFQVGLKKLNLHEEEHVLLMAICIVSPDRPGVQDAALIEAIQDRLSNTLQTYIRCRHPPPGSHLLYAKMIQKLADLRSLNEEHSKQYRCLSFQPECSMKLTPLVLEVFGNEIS

[4] = biological target: Retinoic acid receptor gamma (Homo sapiens) (UniProt P13631); experiment: Inhibition of RARgamma (unknown origin) transfected in African green monkey COS-7 cells co-transfected with LBD-GAL4 assessed as receptor transactivation at 1 to 10 uM incubated for 16 hrs by luciferase reporter gene assay
[5] = biological target: Retinoic acid receptor beta (Homo sapiens) (UniProt P10826); experiment: Inhibition of RARbeta (unknown origin) transfected in African green monkey COS-7 cells co-transfected with LBD-GAL4 assessed as receptor transactivation at 1 to 10 uM incubated for 16 hrs by luciferase reporter gene assay
[6] = biological target: T1, Vitamin D3 receptor (Homo sapiens); experiment: Inhibition of VDR (unknown origin) transfected in African green monkey COS-7 cells co-transfected with LBD-GAL4 assessed as receptor transactivation at 1 to 10 uM incubated for 16 hrs by luciferase reporter gene assay

- Activity [1]: inactive
- Activity [2]: inactive
- Activity [3]: inactive
- inhibition [4]: inactive
- inhibition [5]: inactive
- inhibition [6]: inactive
SMILES: Cc1cc(CN2CCN(c3ccc(C(F)(F)F)cn3)CC2)cc(C)c1OC(C)(C)C(=O)O
